We go through 2 compounds from ChEMBL document CHEMBL2417375 (Bioorg Med Chem Lett, 2013).

By UniProt entry, the sequences of proteins in these tests, tags left out.
UniProt P42866, whole entry: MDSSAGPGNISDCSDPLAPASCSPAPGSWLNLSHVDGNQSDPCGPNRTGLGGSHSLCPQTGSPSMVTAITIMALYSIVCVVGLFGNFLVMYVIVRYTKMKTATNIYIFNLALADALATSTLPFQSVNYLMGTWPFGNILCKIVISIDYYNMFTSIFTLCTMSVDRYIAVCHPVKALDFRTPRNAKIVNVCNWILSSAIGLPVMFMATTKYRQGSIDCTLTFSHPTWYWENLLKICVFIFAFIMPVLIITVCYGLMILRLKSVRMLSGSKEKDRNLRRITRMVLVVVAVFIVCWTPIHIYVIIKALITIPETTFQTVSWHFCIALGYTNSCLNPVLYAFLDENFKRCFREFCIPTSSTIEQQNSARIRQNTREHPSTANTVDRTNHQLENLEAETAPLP

Molecules are shown by their SMILES.

As a reminder, the Ki is a dissociation constant, usually derived from enzyme kinetics or from competition with a known ligand. One may read the EC50 as the concentration needed to bring the measured effect to its halfway point.

The target of assay [1] is T1, Mu-type opioid receptor (Mus musculus, UniProt P42866). Nature of the assay: Displacement of [3H]-naloxone from mouse mu opioid receptor expressed in CHO cells after 1.5 hrs. It is filed as cell-based. On the technique in general: Displacement assays read how much labelled ligand stays bound in the presence of the test substance.
Assay [2] has as its target T1, Mu-type opioid receptor. Nature of the assay: Agonist activity at mouse mu opioid receptor expressed in CHO cells assessed as stimulation of [35S]-GTPgammaS binding after 1.5 hrs. It is filed as functional, cell-based.

As for `O=C(N[C@H]1CC[C@@]2(O)[C@H]3Cc4ccc(O)c5c4[C@@]2(CCN3CC2CC2)[C@H]1O5)c1cc2ccccc2c(Cl)n1`, at Mu-type opioid receptor [1], the Ki amounted to 1.26 nM. The EC50 at Mu-type opioid receptor [2] came out at 2.62 nM.

In the case of `COc1c(C(=O)N[C@H]2CC[C@@]3(O)[C@H]4Cc5ccc(O)c6c5[C@@]3(CCN4CC3CC3)[C@H]2O6)nc(Cl)c2ccccc12`, the affinity at Mu-type opioid receptor [1], expressed as Ki, was 0.55 nM.
